With `COc1ccc2c(c1)[C@]1(C[C@H]1c1ccc3c(/C=C/c4ccc(CN5CCOCC5)cc4)n[nH]c3c1)C(=O)N2C` the clearance (Canis familiaris) was 1.6 L/h/kg and the clearance (Rattus norvegicus) was 1.9 L/h/kg.
